Consider seven compounds from patent EP4831188A1, “GLYCYRRHETINIC ACID DERIVATIVE AND USE THEREOF” (dated 2026).

Test [1] concerns BALB/c mice. The test can be described thus: Chloroquine-induced pruritus in mice. As to conditions: for number of scratching bouts in mice: result in words; for Number of scratching bouts: 100 mg once daily for 3 days, test compounds 3% cream, pimecrolimus cream 10 mg/g. As for the experimental part:
• 6.1 Animals: Balb/c mice, female. • 6.2 Reagents: Chloroquine; normal saline.
After 3 days of adaptive feeding, 50 female Balb/c mice were randomly divided into groups, with 10 mice in each group. The hair on a 2×3 cm^2 area of the back of each mouse was completely removed using depilatory cream. Except for the blank control group, the test groups (Compound 1, Compound 16) and the model group were treated with the corresponding drugs or matrix (pimecrolimus cream matrix) at the depilated site, 100 mg per time, once daily for 3 consecutive days. The positive control group was treated with the corresponding weight of pimecrolimus cream. Thirty minutes after the last administration, chloroquine (40 mg/kg) was injected subcutaneously. The blank control group was injected subcutaneously with the corresponding volume of normal saline only. The number of scratching bouts within 20 min after chloroquine injection was recorded.
• Test compounds: The formulations were prepared with reference to pimecrolimus cream (test compound concentration: 3%). • Positive control: Commercially available pimecrolimus cream (from MEDA Manufacturing, specification: 10 mg/g).

Test [2] relates to ICR mice. As to the kind of experiment: Inhibitory activity assay against ear swelling in ICR mice (phorbol ester, TPA). The settings on record: for inhibitory activity in the mouse ear swelling inflammation model induced by phorbol ester: result in words; for Thickness: right ear, test compounds 3% cream, pimecrolimus cream 10 mg/g, compound dexamethasone acetate cream 0.75 mg/g, 50 µL. On the procedure:
• ICR mice, male, 20±2 g. • 3.2 Reagents: Inflammatory agent (phorbol ester (TPA)).
ICR mice were randomly divided into groups, with 8 mice in each group. The thickness of the right ear of each animal was measured using a micrometer. Subsequently, except for the blank control group, all mice in other groups were administered 20 µL of 0.03% TPA on both the inner and outer sides of the right ear (10 µL per side) to induce inflammation. The mice were dosed once at 1 h before modeling and 1 h after modeling, respectively. The test groups (Compound 1, Compound 16) received a dose volume of 50 µL each time. The blank control group and the model group (with matrix) were treated with the corresponding volumes of blank matrix (pimecrolimus cream matrix). The positive control group was treated with an equal volume of pimecrolimus cream or compound dexamethasone acetate cream. Before modeling, the ears should be cleaned prior to TPA application. Ear thickness measurement: The thickness of the right ear was measured at 0 h, 2 h, 4 h, and 6 h after TPA induction.
• Test compounds: The formulations were prepared with reference to pimecrolimus cream (from MEDA Manufacturing) (test compound concentration: 3%). • Positive control: Commercially available compound dexamethasone acetate cream (from China Resources Sanjiu Medical & Pharmaceutical Co., Ltd., specification: 0.75 mg/g); commercially available pimecrolimus cream (from MEDA Manufacturing, specification: 10 mg/g).

Test [3] has as its system SD rats. The test can be described thus: Radiation dermatitis assay (X-ray, 25 Gy). As to conditions: for content of the cytokine TGF-β1 / number of inflammatory cells in the rat radiation dermatitis model / release of the inflammatory cytokine TNF-α / skin lesion area / skin lesion score in the rat radiation dermatitis model / amount of new granulation tissue in the dermis / number of capillaries in the dermis: result in words; for amount of new granulation tissue in the dermis / number of capillaries in the dermis: pathological observation of rat skin; for Score (skin lesion score of radiation dermatitis): end of administration; for Score (skin lesion score of radiation dermatitis) / Number of inflammatory cells: 100 mg once daily for 28 days, test compounds 0.5% cream, triethanolamine cream 0.67%, hydrocortisone butyrate cream 1 mg/g; for Number of inflammatory cells: skin, HE staining. As for the experimental part: • 5.1 Animals: SD rats, SPF grade, male, 230-250 g. • 5.2 Equipment: RS 2000·Pro 225 Rad Source X-ray Irradiator; SpectraMax i3 Multifunctional Microplate Reader.
Eighty SD rats were randomly divided into groups, with 10 rats in each group. Except for the blank control group, all rats were subjected to modeling using a Rad Source X-ray irradiator. The hair on the irradiation site was removed 24 hours before irradiation. On the day of irradiation, the rats were anesthetized and received a single X-ray irradiation on the posterior buttock at a dose of 25 Gy, a dose rate of 4 Gy/min, and an irradiation area of 2×2 cm^2. On the second day after irradiation, the test groups (Compound 1, Compound 16, Compound 21) received the corresponding drugs, 100 mg per time, once daily for 28 consecutive days. The blank control group and the model (with matrix) group received the corresponding weight of blank matrix (triethanolamine cream matrix). The positive control group was treated with the corresponding weight of triethanolamine cream or hydrocortisone butyrate cream. At the end of administration, the damaged skin was scored according to erythema/darkening, edema/papules, exudation/crusting, and erosion, with reference to the scoring criteria for atopic dermatitis. After scoring, skin from the damaged site was collected and homogenized, and the content of inflammatory cells in the skin was detected using an ELISA kit. Additional skin was collected, fixed, and then stained with HE, and the number of inflammatory cells was observed.
• Test compounds: The formulations were prepared with reference to triethanolamine cream (test compound concentration: 0.5%). • Positive controls: Commercially available triethanolamine cream (from JOHNSON & JOHNSON SANTE BEAUTE FRANCE, specification: 0.67%); hydrocortisone butyrate cream (from Hubei Heng'an Fulin Pharmaceutical Co., Ltd., specification: 1 mg/g).

Marks after values point to notes of the source that are not given here.

As for `CCN(CC)CCOC(=O)[C@@]1(C)CC[C@]2(C)CC[C@]3(C)C(=CC(=O)[C@@H]4[C@@]5(C)C=C(C#N)C(=O)C(C)(C)[C@@H]5CC[C@]43C)[C@@H]2C1`, the “number of scratching bouts in mice” value in test [1] is listed as “significantly reduce”. Besides, in test [2], the “inhibitory activity in the mouse ear swelling inflammation model induced by phorbol ester” value (“inhibitory activity” below) is “significant inhibitory activity”. Besides, in test [3], the “content of the cytokine TGF-β1” value is given as “significantly reduce”, the “number of inflammatory cells in the rat radiation dermatitis model” value (shortened to “number … in the rat radiation dermatitis model”) is “significantly reduce”, the “release of the inflammatory cytokine TNF-α” value (“release” below) is “significantly reduce” and the skin lesion area result is “significantly reduce”. Also, in test [3], the “skin lesion score in the rat radiation dermatitis model” value is on record as “significantly reduce”, the “amount of new granulation tissue in the dermis” value (“amount of new granulation tissue” for short) is recorded as “significantly increased” and the “number of capillaries in the dermis” value is recorded as “significantly increased”.
Turning to `CCN(CC)CCOC(=O)[C@@]1(C)CC[C@]2(C)CC[C@]3(C)C(=CC(=O)[C@@H]4[C@@]5(C)CCC(=O)C(C)(C)[C@@H]5CC[C@]43C)[C@@H]2C1`, in test [1] (0-10 min after chloroquine 40 mg/kg s.c.), the “Number of scratching bouts” value is reported as 18+6. The Number of scratching bouts in test [1] (0-20 min after chloroquine 40 mg/kg s.c.) was 36 ·. Besides, in test [1] (10-20 min after chloroquine 40 mg/kg s.c.), the Number of scratching bouts is 18 ·. The “number of scratching bouts in mice” value in test [1] is “significantly reduce”. In test [2], the “inhibitory activity” value is “significant inhibitory activity”. The compound further had a Thickness in test [2] (0 h after TPA induction) of 0.213 ± 0.01 mm. Moreover, in test [2] (2 h after TPA induction), the Thickness is 0.264 ± 0.027 mm. Also, the Thickness in test [2] (4 h after TPA induction) turned out to be 0.300±0.043 mm. The compound also showed a Thickness in test [2] (6 h after TPA induction) of 0.293±0.066 mm. Further, in test [3], the Score (skin lesion score of radiation dermatitis) is 4.8 ··, the “content of the cytokine TGF-β1” value is “significantly reduce”, the “number … in the rat radiation dermatitis model” value is “significantly reduce” and the “release” value was “significantly reduce”. Moreover, in test [3], the skin lesion area result is given as “significantly reduce”, the “skin lesion score in the rat radiation dermatitis model” value is “significantly reduce”, the “amount of new granulation tissue” value is given as “significantly increased” and the “number of capillaries in the dermis” value is recorded as “significantly increased”. The “Number of inflammatory cells” value in test [3] is reported as 186.6+78.6***.
With `CCN(CC)CCOC(=O)[C@@]1(C)CC[C@]2(C)CC[C@]3(C)C(=CC(=O)[C@@H]4[C@@]5(C)CCC(=O)C(C)(C)[C@@H]5CC[C@]43C)[C@H]2C1`, in test [1], the “number of scratching bouts in mice” value was “significantly reduce”. For the same compound, the “inhibitory activity” value in test [2] was “significant inhibitory activity”. Also, in test [3], the “content of the cytokine TGF-β1” value was “significantly reduce”, the “number … in the rat radiation dermatitis model” value is reported as “significantly reduce”, the “release” value is listed as “significantly reduce” and the skin lesion area result is “significantly reduce”. In test [3], the “skin lesion score in the rat radiation dermatitis model” value is recorded as “significantly reduce”, the “amount of new granulation tissue” value is “significantly increased” and the “number of capillaries in the dermis” value was “significantly increased”.
Turning to “(2S,4aS,6aS,6bR,8aR,12aS,12bR,14bR)-11-chloro-2,4a,6a,6b,9,9,12a-heptamethyl-10,13-dioxo-1,2,3,4,4a,5,6,6a,6b,7,8,8a,9,10,12a,12b,13,14b-octadecahydropicene-2-carboxylate triethanolamine salt”, in test [1], the “number of scratching bouts in mice” value is recorded as “significantly reduce”. In test [2], the “inhibitory activity” value is “significant inhibitory activity”. In test [3], the “content of the cytokine TGF-β1” value is given as “significantly reduce”, the “number … in the rat radiation dermatitis model” value is “significantly reduce”, the “release” value is reported as “significantly reduce” and the skin lesion area entry is on record as “significantly reduce”. Moreover, in test [3], the “skin lesion score in the rat radiation dermatitis model” value is reported as “significantly reduce”, the “amount of new granulation tissue” value is on record as “significantly increased” and the “number of capillaries in the dermis” value was “significantly increased”.
In the case of `CC1(C)C(=O)C(Cl)=C[C@]2(C)[C@H]3C(=O)C=C4[C@H]5C[C@@](C)(C(=O)O)CC[C@]5(C)CC[C@@]4(C)[C@]3(C)CC[C@@H]12`, the “number of scratching bouts in mice” value in test [1] is reported as “significantly reduce”. Also, the “inhibitory activity” value in test [2] was “significant inhibitory activity”. Further, in test [3], the “content of the cytokine TGF-β1” value was “significantly reduce”, the “number … in the rat radiation dermatitis model” value was “significantly reduce”, the “release” value is “significantly reduce” and the skin lesion area result was “significantly reduce”. In test [3], the “skin lesion score in the rat radiation dermatitis model” value is reported as “significantly reduce”, the “amount of new granulation tissue” value is given as “significantly increased” and the “number of capillaries in the dermis” value is given as “significantly increased”.
As to `CN(C)c1nc2c(s1)C[C@]1(C)[C@H]3C(=O)C=C4[C@@H]5C[C@@](C)(C(=O)O)CC[C@]5(C)CC[C@@]4(C)[C@]3(C)CC[C@H]1C2(C)C`, the “number of scratching bouts in mice” value in test [1] is recorded as “significantly reduce”. Moreover, the “inhibitory activity” value in test [2] is listed as “significant inhibitory activity”. In test [3], the Score (skin lesion score of radiation dermatitis) is 4.8 ··, the “content of the cytokine TGF-β1” value is “significantly reduce”, the “number … in the rat radiation dermatitis model” value is “significantly reduce” and the “release” value was “significantly reduce”. For the same compound, in test [3], the skin lesion area entry was “significantly reduce”, the “skin lesion score in the rat radiation dermatitis model” value is reported as “significantly reduce”, the “amount of new granulation tissue” value is given as “significantly increased” and the “number of capillaries in the dermis” value was “significantly increased”. In addition, in test [3], the Number of inflammatory cells is 189 ···.
For `CCN(CC)CCOC(=O)[C@@]1(C)CC[C@]2(C)CC[C@]3(C)C(=CC(=O)[C@@H]4[C@@]5(C)CCC(=O)C(C)(C)[C@@H]5CC[C@]43C)[C@@H]2C1.Cl`, the “number of scratching bouts in mice” value in test [1] was “significantly reduce”. In test [2], the “inhibitory activity” value is on record as “significant inhibitory activity”. In addition, in test [3], the “content of the cytokine TGF-β1” value was “significantly reduce”, the “number … in the rat radiation dermatitis model” value is “significantly reduce”, the “release” value is “significantly reduce” and the skin lesion area result is “significantly reduce”. In test [3], the “skin lesion score in the rat radiation dermatitis model” value was “significantly reduce”, the “amount of new granulation tissue” value is reported as “significantly increased” and the “number of capillaries in the dermis” value was “significantly increased”.
